Assay results taken from US20230310478A1, “METHODS AND COMPOSITIONS FOR THE TREATMENT OF PULMONARY HYPERTENSION AND CANCER” (Ann and Robert H. Lurie Children's Hospital of Chicago, priority 2020, published 2023).
Where a name gives a salt, the structure may show the parent alone.

Key:
PDGF-B = assay: quantitative RT-PCR of PH-causing genes in DMOG-treated HLMVECs: PDGF-B; format: cell-based, human; details: 20 & 40 uM, 24 h, mean±SD
Endothelin-1 = assay: quantitative RT-PCR of PH-causing genes in DMOG-treated HLMVECs: Endothelin-1; format: cell-based, human; details: 20 & 40 uM, 24 h, mean±SD
SDF1 = assay: quantitative RT-PCR of PH-causing genes in DMOG-treated HLMVECs: SDF1; details: 20 & 40 uM, 24 h, mean±SD
HIF-2α = assay: HRE luciferase activity in DMOG-treated HLMVECs; format: cell-based, human; details: DMOG 1 mM, quinidine 20 μM, 24 hours
HIF-2α target genes = assay: quantitative RT-PCR of HIF-2α target genes in PHD2-deficient HLMVECs; format: cell-based, human; details: siPHD2-transfected HLMVECs, quinidine 20 μM, 24 hours

| Compound | PDGF-B expression (control = 1.00) (PDGF-B; DMOG alone 2.05 ± 0.33, hydrochloride) | PDGF-B expression (control = 1.00) (PDGF-B; DMOG alone 2.05 ± 0.33, listed as irinotecan, hydrochloride) | Endothelin-1 expression (control = 1.00) (Endothelin-1; DMOG alone 2.36 ± 0.23, hydrochloride) | Endothelin-1 expression (control = 1.00) (Endothelin-1; DMOG alone 2.36 ± 0.23, listed as irinotecan, hydrochloride) | SDF1 expression (control = 1.00) (SDF1; DMOG alone 1.80 ± 0.06, hydrochloride) | SDF1 expression (control = 1.00) (SDF1; DMOG alone 1.80 ± 0.06, listed as irinotecan, hydrochloride) | HRE luciferase activity (HIF-2α) | HRE luciferase activity (HIF-2α; listed as quinidine) | expression of HIF-2α target genes (HIF-2α target genes) |
| --- | --- | --- | --- | --- | --- | --- | --- | --- | --- |
| CCc1c2c(nc3ccc(OC(=O)N4CCC(N5CCCCC5)CC4)cc13)-c1cc3c(c(=O)n1C2)COC(=O)[C@]3(O)CC [Irinotecan, [(19S)-10,19-diethyl-19-hydroxy-14,18-dioxo-17-oxa-3,13-diazapentacyclo[11.8.0.0^2,11.0^4,9.0^15,20]henicosa-1(21),2,4(9),5,7,10,15(20)-heptaen-7-yl] 4-piperidin-1-ylpiperidine-1-carboxylate; hydrochloride] | 1.16 ± 0.15 | inhibited | 0.73 ± 0.46 | inhibited | 0.64 ± 0.10 | inhibited | – | – | – |
| C=C[C@H]1C[N@]2CC[C@H]1C[C@@H]2[C@@H](O)c1ccnc2ccc(OC)cc12 [Quinidine, (2-Ethenyl-4-azabicyclo[2.2.2]oct-5-yl)-(6-methoxyquinolin-4-yl)-methanol] | – | – | – | – | – | – | suppression of HRE activity | inhibited HRE/luciferase activity | inhibited expression of HIF-2α target genes |
